Literature values, collected in PMC7781173 (Amino Acids, 2021).

Test system: C5
Settings: background statement, reference not given; cited from earlier work

eculizumab: already approved therapeutic for paroxysmal nocturnal hemoglobinuria, atypical hemolytic uremic syndrome, neuromyelitis optica and MG
C5 cleavage: inhibit C5 cleavage
